Data from US20240091319A1, “DUAL-ADMINISTRATION METHODS FOR TREATING RESPIRATORY DISTRESS” (THE TRUSTEES OF THE STEVENS INSTITUTE OF TECHNOLOGY, priority 2021, published 2024).

Assays:
adult rat lung = experiment: Facilitation of dilute SURVANTA by negatively charged solutes in the adult rat lung
Description: Method 1. Surface tension determination in the isolated adult rat lung. In an isolated (excised) adult rat lung, the alveolar liquid is labeled with a fluorescent dye verified not to alter surface tension. T is determined as follows at a curved region of the alveolar air-liquid interface (e.g., the meniscus in a flooded alveolus or the corner of an aerated alveolus). Alveolar air pressure is determined with a transducer at the trachea of the constantly-inflated lung. Alveolar liquid phase pressure is determined by servo-nulling pressure measurement. The three-dimensional interfacial radius of curvature is determined by confocal microscopy. The surface tension is calculated according to the Laplace relation.
Method 2. Ventilation ‘injury score’ in the isolated adult rat lung. […] Alveolar liquid fluorescence at all time points is normalized by capillary fluorescence.
At baseline, alveolar liquid fluorescence (in flooded alveoli of experimental regions or in the liquid lining layer of control, aerated regions) is low and constant in all regions. Following ventilation, alveolar liquid fluorescence remains unchanged in aerated regions but continually increases with time in heterogeneously flooded regions. […] The increase above baseline in normalized alveolar liquid fluorescence at the last time point of the experiment is used as an injury score. […]

[1] = Surface tension in a liquid drop in vitro (Method 4); assay type: physicochemical
Description: Surface tension of normal saline drops (3 μl) containing 31 μM fluorescein and additional solutes as specified. The SP-C solution additionally contains 1.6% chloroform and 0.8% methanol.
Method 4. Surface tension in a liquid drop. […] The liquid pressure in the drop is determined by servo-nulling pressure measurement; the interfacial radius of curvature is determined by confocal microscopy; and the air pressure is atmospheric. Surface tension is calculated according to the Laplace relation and found to be 72±2 mN/m for normal saline, as expected.

Substance: albumin: the most abundant plasma protein, 66 kD; negatively charged facilitating solute
- albumin concentrations that facilitate the surface activity of 1 vol % SURVANTA (adult rat lung): 3-11 w/v %
- optimal albumin concentration for the facilitation of 1% SURVANTA ([1]; 3 μl normal saline drops, FIG. 4 bars 3, 4, 5): ~5%
- extent of the albumin concentration range that facilitates 1 vol % SURVANTA in vitro ([1]; in vitro): does not extend to 10 vol % SURVANTA®
- facilitation of the surface activity of SURVANTA in vitro ([1]; in vitro): likewise facilitates the surface activity of SURVANTA®
